Like-named read-outs stand apart in the source and are kept apart here.
Target: T1, CB1R (Mus musculus, UniProt P47746)
T1 construct: Hippocampal membrane homogenates from WT vehicle (n = 14), WT WIN (n = 10), R6/1 vehicle (n = 10) and R6/1 WIN (n = 9) mice; from tissue; host or cells: mouse hippocampal membrane homogenates / synaptosomes (WT and R6/1, vehicle or WIN treated)
Type: binding
Details: for Bmax: [3H]SR141716A 2 nmol/L

Protein sequences, listed by entry. Tags and fused reporters are not part of them.
UniProt P47746, whole entry: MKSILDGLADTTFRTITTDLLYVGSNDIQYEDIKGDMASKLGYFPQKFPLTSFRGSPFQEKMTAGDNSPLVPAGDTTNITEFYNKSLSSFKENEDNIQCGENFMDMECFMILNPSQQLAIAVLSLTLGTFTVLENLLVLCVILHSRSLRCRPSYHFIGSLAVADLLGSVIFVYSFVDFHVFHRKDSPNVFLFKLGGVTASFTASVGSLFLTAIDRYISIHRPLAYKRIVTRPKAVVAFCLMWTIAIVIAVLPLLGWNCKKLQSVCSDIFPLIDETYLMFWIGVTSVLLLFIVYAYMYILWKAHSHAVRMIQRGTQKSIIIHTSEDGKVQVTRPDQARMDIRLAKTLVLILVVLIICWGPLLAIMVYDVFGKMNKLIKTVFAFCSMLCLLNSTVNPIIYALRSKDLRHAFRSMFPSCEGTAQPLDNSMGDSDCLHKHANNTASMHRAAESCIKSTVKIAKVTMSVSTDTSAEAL

In the case of `Cc1c(C(=O)c2cccc3ccccc23)c2cccc3c2n1[C@H](CN1CCOCC1)CO3` [WIN, WIN 55212–2], the Bmax (hippocampal membrane homogenates of R6/1 mice treated with WIN 1 mg/kg) is reported as 830.6 ± 46.32^$$ fmol/mg prot, the Bmax (hippocampal membrane homogenates of WT mice treated with WIN 1 mg/kg) is reported as 828.0 ± 39.64 fmol/mg prot and the “Total binding of [3H]SR141716A (peak of the inhibition curve)” value (hippocampal membranes of R6/1 mice, WIN vs vehicle) is reported as “significantly increased”. For the same molecule, the “binding profile of inhibition curve (one or two binding sites)” value (hippocampal membranes of WIN-treated R6/1 mice, [3H]SR141716A displaced by CP55940) was “both binding sites”.

Source: PMC12376758, “Restoration of CB1 receptor function in hippocampal GABAergic neurons rescues memory deficits in Huntington’s disease models” (Translational Neurodegeneration, 2025)
